We go through one molecule from patent US20250017942A1, “Prevention and treatment of osteoarticular diseases by inhibiting acetylcholinesterase” (priority 2021, published 2025).

By IC50 is commonly meant the concentration needed to halve the response being measured.

The target of test [1] is T1, AChE (Rattus norvegicus, UniProt P37136). The following applies: read-out: AChE inhibitory IC50; Table 3, literature values; cited from earlier work.
In test [2] the target is T1, AChE. Description: Anti-AChE activities of known AChE inhibitors and novel dimers (Table 3). As to conditions: AChE inhibitory IC50 of tacrine divided by that of each AChE inhibitor.

As to `c1ccc2c(NCCCNc3c4c(nc5ccccc35)CCCC4)c3c(nc2c1)CCCC3`, at AChE [1], the IC50 is 0.254 µM. For the same molecule, the “Relative potency (fold change)” value at AChE [2] came to 1 fold change.
